Measurements as given in article PMC7883873, “Discovery of New Catalytic Topoisomerase II Inhibitors for Anticancer Therapeutics” (Frontiers in Oncology, 2021).

The chains behind the UniProt entries cited, without tags or fusion partners. Where a name states a change or a piece, a line headed by the entry shows the natural chain unless it says otherwise.
UniProt P11388: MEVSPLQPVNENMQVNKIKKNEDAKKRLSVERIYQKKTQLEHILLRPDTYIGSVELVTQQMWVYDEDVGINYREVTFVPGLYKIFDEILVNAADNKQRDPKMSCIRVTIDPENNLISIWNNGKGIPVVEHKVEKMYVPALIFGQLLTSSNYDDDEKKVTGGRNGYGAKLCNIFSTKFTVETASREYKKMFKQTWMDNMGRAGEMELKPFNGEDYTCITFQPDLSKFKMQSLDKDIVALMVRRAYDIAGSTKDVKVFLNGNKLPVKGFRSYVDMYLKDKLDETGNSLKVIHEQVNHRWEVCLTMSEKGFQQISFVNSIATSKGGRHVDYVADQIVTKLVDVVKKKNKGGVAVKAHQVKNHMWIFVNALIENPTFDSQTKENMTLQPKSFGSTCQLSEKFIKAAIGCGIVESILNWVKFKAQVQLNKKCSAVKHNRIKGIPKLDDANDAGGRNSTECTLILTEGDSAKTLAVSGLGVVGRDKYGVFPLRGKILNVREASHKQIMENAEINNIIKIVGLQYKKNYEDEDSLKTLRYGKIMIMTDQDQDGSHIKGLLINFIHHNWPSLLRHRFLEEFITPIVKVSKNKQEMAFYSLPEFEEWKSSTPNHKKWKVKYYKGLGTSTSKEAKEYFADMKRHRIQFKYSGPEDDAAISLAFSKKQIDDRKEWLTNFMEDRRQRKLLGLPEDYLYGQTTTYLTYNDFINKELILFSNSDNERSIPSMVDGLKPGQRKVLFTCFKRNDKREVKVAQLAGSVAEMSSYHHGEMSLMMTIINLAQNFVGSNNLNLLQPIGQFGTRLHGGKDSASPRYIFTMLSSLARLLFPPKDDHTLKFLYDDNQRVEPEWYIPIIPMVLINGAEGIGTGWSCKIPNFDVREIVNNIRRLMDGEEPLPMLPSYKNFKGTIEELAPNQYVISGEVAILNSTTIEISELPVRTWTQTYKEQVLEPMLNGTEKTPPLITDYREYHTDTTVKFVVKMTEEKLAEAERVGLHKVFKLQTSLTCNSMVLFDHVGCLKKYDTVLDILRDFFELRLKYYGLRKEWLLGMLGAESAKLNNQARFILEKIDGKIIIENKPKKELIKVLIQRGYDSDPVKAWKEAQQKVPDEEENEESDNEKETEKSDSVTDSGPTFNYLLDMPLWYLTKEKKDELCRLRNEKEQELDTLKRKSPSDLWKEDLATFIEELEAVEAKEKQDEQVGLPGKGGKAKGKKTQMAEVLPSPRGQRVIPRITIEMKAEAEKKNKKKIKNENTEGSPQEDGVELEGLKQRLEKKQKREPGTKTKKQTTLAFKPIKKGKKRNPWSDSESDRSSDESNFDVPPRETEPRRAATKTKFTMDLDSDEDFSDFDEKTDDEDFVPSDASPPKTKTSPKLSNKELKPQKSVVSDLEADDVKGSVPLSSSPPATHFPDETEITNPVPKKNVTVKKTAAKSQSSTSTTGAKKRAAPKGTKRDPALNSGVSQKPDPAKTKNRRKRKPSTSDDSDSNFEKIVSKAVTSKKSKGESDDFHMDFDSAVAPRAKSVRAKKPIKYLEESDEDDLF

Target: TOP2A (Homo sapiens, UniProt P11388)
Assay: K-DNA decatenation assay
Format: biochemical
Parameters: full-length human TOP2A and TOP2B protein (TopoGEN and Inspiralis respectively); purchased TopoGEN TG1001 (human TOP2 assay kit)
Settings: Figure 3A
Procedure: The human TOP2 assay kit (#TG1001, TopoGEN, Buena Vista, CO) and TOP2B (HTB205, Inspiralis, UK) were used for K-DNA decatenation assays. TOP2 enzymes were incubated with 250 ng of kDNA in a reaction buffer containing 50 mM Tris-HCl (pH 8.0), 150 mM NaCl, 10 mM MgCl2, 2 mM ATP, 0.5 mM DTT, and 30 mg/ml BSA in the presence of candidate compounds or etoposide and ICRF193 as control inhibitors in a final volume of 20 µl. The reaction was incubated at 37C for 2 h after which 4 µl stop solution (5× buffer is 5% Sarkosyl, 0.125% bromophenol blue, 25% glycerol) was added. The reaction was resolved by electrophoresis on a 0.8% agarose gel at 60 V and stained with 0.5 µg/ml ethidium bromide for 15 min. DNA bands were visualized using a gel imager (Gel Doc™ EZ System) and quantified using the Image Studio™ Lite Quantification Software.

COc1cc([C@@H]2c3cc4c(cc3[C@@H](O[C@@H]3O[C@@H]5CO[C@@H](C)O[C@H]5[C@H](O)[C@H]3O)[C@H]3COC(=O)[C@H]23)OCO4)cc(OC)c1O [etoposide, reference compound]
Inhibition of TOP2A mediated K-DNA decatenation: but not
